The values that follow come from article PMC3101196, “Trapping Conformational States Along Ligand-Binding Dynamics of Peptide Deformylase: The Impact of Induced Fit on Enzyme Catalysis” (PLoS Biology, 2011).

Amino acid sequences for entries named in this document (tags omitted). Residues count along the entry.
UniProt Q9FUZ2, 57-273 G121M: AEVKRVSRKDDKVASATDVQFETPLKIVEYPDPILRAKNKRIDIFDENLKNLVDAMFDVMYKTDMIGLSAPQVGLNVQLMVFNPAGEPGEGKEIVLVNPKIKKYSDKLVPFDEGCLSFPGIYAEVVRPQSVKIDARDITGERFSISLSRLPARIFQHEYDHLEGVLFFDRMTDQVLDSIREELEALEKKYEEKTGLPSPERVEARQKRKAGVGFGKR
UniProt Q9FUZ2, 57-273 I122A: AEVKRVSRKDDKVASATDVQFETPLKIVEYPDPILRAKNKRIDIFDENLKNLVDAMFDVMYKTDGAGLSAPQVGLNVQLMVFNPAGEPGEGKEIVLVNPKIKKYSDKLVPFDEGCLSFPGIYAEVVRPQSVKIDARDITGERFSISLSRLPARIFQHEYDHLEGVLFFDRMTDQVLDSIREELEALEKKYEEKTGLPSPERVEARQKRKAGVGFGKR
UniProt Q9FUZ2, 57-273 I210A: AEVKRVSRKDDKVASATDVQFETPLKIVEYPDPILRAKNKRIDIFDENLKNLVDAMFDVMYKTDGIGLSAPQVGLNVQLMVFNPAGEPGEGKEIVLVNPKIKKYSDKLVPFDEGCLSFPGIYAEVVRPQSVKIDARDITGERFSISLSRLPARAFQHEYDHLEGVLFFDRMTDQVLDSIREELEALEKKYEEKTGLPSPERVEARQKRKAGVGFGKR
UniProt Q9FUZ2, 57-273 I122F: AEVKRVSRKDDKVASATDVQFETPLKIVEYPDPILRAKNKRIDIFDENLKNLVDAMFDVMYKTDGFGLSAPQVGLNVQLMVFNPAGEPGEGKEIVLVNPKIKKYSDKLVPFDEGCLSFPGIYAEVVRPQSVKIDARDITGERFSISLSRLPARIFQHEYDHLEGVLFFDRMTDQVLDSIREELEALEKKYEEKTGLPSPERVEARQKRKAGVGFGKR
UniProt Q9FUZ2, 57-273 I122N: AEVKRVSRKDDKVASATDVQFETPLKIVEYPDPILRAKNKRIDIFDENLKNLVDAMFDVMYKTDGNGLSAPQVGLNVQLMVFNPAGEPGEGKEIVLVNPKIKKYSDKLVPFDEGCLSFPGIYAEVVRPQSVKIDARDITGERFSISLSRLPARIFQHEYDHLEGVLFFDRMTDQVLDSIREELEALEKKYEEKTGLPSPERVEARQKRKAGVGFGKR
UniProt Q9FUZ2, 83-273 I122W: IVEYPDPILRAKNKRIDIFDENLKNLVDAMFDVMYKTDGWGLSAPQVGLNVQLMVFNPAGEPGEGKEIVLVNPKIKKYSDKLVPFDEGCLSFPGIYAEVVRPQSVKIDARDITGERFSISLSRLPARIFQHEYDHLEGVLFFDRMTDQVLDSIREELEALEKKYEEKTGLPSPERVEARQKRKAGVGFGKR

Holding throughout (format): biochemical
What all share (conditions): substrate Fo-Met-Ala-Ser, 100 nM enzyme, 750 µM NiCl2, 37°C

For experiment [1], the target named is T1, AtPDF variant G41M (Arabidopsis thaliana, UniProt Q9FUZ2, G121M).
T1 construct: Expression and purification of mature Arabidopsis thaliana PDF1B and all variants (i.e., AtPDF); made in house
As for the experimental part:
(§1) Assay of PDF activity was coupled to formate dehydrogenase, where the absorbance of NADH at 340 nm was measured at 37°C as previously described. […] The kinetics parameters were derived from iterative non-linear least square calculations using the Michaelis-Menten equation based on the experimental data (Sigma-Plot; Kinetics module). […] The data were then calculated according to the method of Henderson, which can be used to determine the dissociation constant of the tight-binding competitive enzyme inhibitor [28],[49],[72] by varying both the inhibitor and substrate concentrations. To determine K I, k 5, and k 6, the reaction was initiated by the addition of enzyme as previously described,[49]. […] From the set of values obtained at various concentrations of I, k5 and k6 could be derived using kobs = k6 + k5[I]/(KI + [I]).

The target in experiment [2] is T2, AtPDF variant I42A (Arabidopsis thaliana, UniProt Q9FUZ2, I122A).
T2 construct: Expression and purification of mature Arabidopsis thaliana PDF1B and all variants (i.e., AtPDF); made in house
As for the experimental part:
as §1

Experiment [3] addresses T3, AtPDF variant I130A (Arabidopsis thaliana, UniProt Q9FUZ2, I210A).
T3 construct: Expression and purification of mature Arabidopsis thaliana PDF1B and all variants (i.e., AtPDF); made in house
The method, then:
as §1
(§2) The enzyme concentration used in the assay was 100 nM.

Experiment [4] addresses T4, AtPDF variant I42F (Arabidopsis thaliana, UniProt Q9FUZ2, I122F).
T4 construct: Expression and purification of mature Arabidopsis thaliana PDF1B and all variants (i.e., AtPDF); made in house
The method, then:
as §1, §2

The target of experiment [5] is T5, AtPDF variant I42N (Arabidopsis thaliana, UniProt Q9FUZ2, I122N).
T5 construct: Expression and purification of mature Arabidopsis thaliana PDF1B and all variants (i.e., AtPDF); made in house
The method, then:
as §1, §2

The target in experiment [6] is T6, AtPDF variant I42W (Arabidopsis thaliana, UniProt Q9FUZ2, I122W).
T6 construct: Expression and purification of mature Arabidopsis thaliana PDF1B and all variants (i.e., AtPDF); made in house
As for the experimental part: as §1, §2

For orientation: Km means the substrate concentration at which the rate is half of its maximum. As for `CSCC[C@H](NC=O)C(=O)N[C@@H](C)C(=O)N[C@@H](CO)C(=O)O` [Fo-Met-Ala-Ser], the Michaelis constant (Km) in experiment [1] was found to be 5.8 ± 1.5 mM; in experiment [2], 10.1 ± 2.6 mM; in experiment [3], 5 ± 3 mM; in experiment [4], 9.8 ± 2 mM; in experiment [5], 5 ± 3 mM; in experiment [6], 5.3 ± 0.5 mM.
